Bioassay records from PubChem BioAssay.
HCMV NEC inh – inhibitors of HCMV UL50-UL53 nuclear egress complex interaction. HTRF UL50-UL53 interaction, normalized percent inhibition. inhibition, % (no concentration beside the values). 190,000 compounds, 0.15% hits. AID 1918969; in the data active = inhibition above about 27%, passing the limit was not always enough
GIV-Gai inh – inhibitors of GIV GBA-motif binding to rat Galpha-i3; percent of control (FP), % (concentration not given with the values); AID 1224905; Galpha-i3/FITC-GIV peptide fluorescence polarization, 90 min; stronger effect = lower value; scaled: aluminum fluoride 0%, vehicle 100%; 210,000 compounds, 0.42% hits; P08753;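 active means replicate mean at 85% of control or lower, very high polarization wells dropped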;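 further: wells of about 15 µL received 100 nL stock; the first replicate is given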
GIV Gai FP conf – GIV-Galpha-i3 inhibition, FP confirmation. shares compounds with GIV-Gai inh. FITC-GIV peptide binding to Galphai3, fluorescence polarization; active compounds read low. fluorescence polarization, mP at 100 µM. 580 compounds, 38% hits. AID 1259350;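 active = inhibition score of 15 or more, meaning 100 minus mean polarization as percent of control over three replicates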;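 note: lower mP means peptide displaced from Galphai3 so more inhibition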
GIV Gai AS conf – GIV-Galpha-i3 inhibition, AlphaScreen confirmation; shares compounds with GIV-Gai inh; AlphaScreen Galphai3-GIV binding, purified proteins, 90 min; active compounds read low; AlphaScreen counts at 100 µM; 580 compounds, 39% hits;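 active = inhibition score at or above a set limit, where the score is 100 minus the three-replicate mean percent of control signal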
Hits are given with their value; n = inactive; x = no result. Most compounds without a hit are left out; they make up all but 0.43% or so of the library.

SMILES | HCMV NEC inh | GIV-Gai inh | GIV Gai FP conf | GIV Gai AS conf
CCSc1nnc2c(n1)OC(c1c(OC)ccc3ccccc13)Nc1ccccc1-2 (stereo unspecified) | n | -4.5 | n | 32956
CCSc1nnc2c(n1)OC(c1ccc(C)cc1)Nc1ccccc1-2 (stereo unspecified) | n | n | x | x
CCCSc1nnc2c(n1)OC(c1ccc(OCC(=O)O)cc1)Nc1ccccc1-2 (stereo unspecified) | x | n | x | x
CCCSc1nnc2c(n1)OC(c1ccc(F)cc1)Nc1ccccc1-2 (stereo unspecified) | n | 66 | n | n
CCSc1nnc2c(n1)OC(c1ccc(Cl)cc1)Nc1ccccc1-2 (stereo unspecified) | n | 78 | n | n
CCCSc1nnc2c(n1)OC(c1c(OC)ccc3ccccc13)Nc1ccccc1-2 (stereo unspecified) | n | n | x | x
CNC(=O)C1CC(=O)N(Cc2ccc(F)cc2)C(=Nc2ccc(F)cc2)S1 (stereo unspecified) | n | n | x | x
Cn1nccc1N1C(=O)c2ccccc2C1=O | n | n | x | x
CCn1c(SC/C(O)=C(\C(=O)OC)c2nc3ccccc3[nH]2)nnc1-c1ccccc1OC | n | x | x | x
COC(CNC(=S)Nc1cccc(C(F)(F)F)c1)OC | n | n | x | x
Cc1ccc(NC(=S)Nc2cccc(C(F)(F)F)c2)cc1NS(C)(=O)=O | 74 | 69 | 50 | n
Cc1cccc(NC(=O)C2CCCN(c3nnc(-n4c(C)ccc4C)s3)C2)c1C (stereo unspecified) | n | n | x | x
Cc1ccc(C)n1-c1nnc(N2CCCC(C(=O)O)C2)s1 (stereo unspecified) | x | n | n | 7556
Cc1ccc(Cn2c(=O)n3nc(-c4ccccc4)nc3c3ccccc32)cc1 | n | n | x | x
CCOC(=O)CSc1nc2cc(C(=O)NCCC3=CCCCC3)ccc2c(=O)n1C1CCCCC1 | x | n | x | x
Cc1cc2c(n1-c1ccc(C(=O)N3CCN(c4ccccc4)CC3)cc1)CCCCC2 | x | n | x | x
Cc1cc2c(n1-c1ccc(C(=O)O)cc1)CCCC2 | 66 | 79 | 58 | 3001
O=C(Cc1ccc(Cl)cc1)N1CCN(c2ccc(Nc3ccccc3)nn2)CC1 | x | n | x | x
CC(NC(=O)c1ccccc1C(=O)NC(C)c1ccc2c(c1)OCCO2)c1ccc2c(c1)OCCO2 (stereo unspecified) | n | n | x | x
CC(NCCO)c1ccc2c(c1)OCCO2 (stereo unspecified) | n | 78 | n | n
CC1CC(C)(C)CC2(C1)NC(=O)N(CC(O)c1ccccc1)C2=O (stereo unspecified) | n | x | x | x
CN1c2ccccc2N(C)C1c1ccc(O)cc1 | 68 | 16 | 31 | 16384
CN1C(=O)c2ccccc2N(C)C1c1ccc(F)cc1 (stereo unspecified) | n | n | x | x
Cc1cccc(NC(=O)C(F)(F)C(F)(F)C(F)(F)F)n1 | n | 65 | n | n
Cc1cccc(NC(=O)c2ccco2)n1 | n | n | x | x
SMILES | HCMV NEC inh | GIV-Gai inh | GIV Gai FP conf | GIV Gai AS conf
COc1ccc(C(CC(=O)c2ccccc2)Sc2ccccc2N)cc1 (stereo unspecified) | n | n | x | x
Cc1ccc(NC(=O)c2sc3nc4c(c(-c5ccco5)c3c2N)CCCC4)cc1 | x | n | x | x
Cc1ccc(NC(=O)c2sc3nc4c(c(-c5ccco5)c3c2N)CCC4)cc1 | x | 76 | n | n
CCOC(=O)c1c(C)[nH]c(C)c1S(=O)(=O)NCCN1CCc2ccccc2C1 | n | n | x | x
COc1ccc(N2C(=O)/C(=C/c3ccc(Cl)cc3)C=C2c2ccccc2)cc1 | x | 82 | n | n
COc1ccc(/C=C2\C=C(c3ccccc3)N(c3cccc(C(C)=O)c3)C2=O)cc1Br | x | 78 | n | n
COc1ccc(/C=C2\C=C(c3ccccc3)N(c3ccc(Cl)c(Cl)c3)C2=O)cc1Br | x | n | x | x
COC(=O)c1cc(N2C(=O)/C(=C/c3ccc(OC)c(Br)c3)C=C2c2ccccc2)ccc1Cl | x | 7.0 | n | n
COc1ccc(/C=C2\C=C(c3ccccc3)N(c3ccc(Br)cc3)C2=O)cc1Br | x | n | x | x
COc1ccc(/C=C2\C=C(c3ccccc3)N(c3cccnc3)C2=O)cc1Br | x | 44 | n | n
COc1ccc(/C=C2\C=C(c3ccccc3)N(c3ccc(Br)cc3)C2=O)cc1 | x | n | x | x
COc1ccc(/C=C2\C=C(c3ccccc3)N(c3ccc(O)cc3)C2=O)cc1Br | x | n | x | x
Cc1ccc(-c2noc(C(=O)N3CCCCC3)n2)cc1S(=O)(=O)N1CCN(c2ccccc2)CC1 | x | n | x | x
O=C(c1cccc2c1NC(c1ccc([N+](=O)[O-])cc1)C1CC=CC21)N1CCCC1 (stereo unspecified) | n | n | x | x
CCn1nccc1C1CCCN1C(=O)Nc1ccc2c(c1)OCCO2 (stereo unspecified) | n | n | x | x
O=C(c1ccccc1)c1ccccn1 | n | 77 | n | n
NC(=O)c1ccccn1 | n | x | x | x
CCCN1C(=O)NC2(O)C(=O)c3ccccc3C12O (stereo unspecified) | x | 77 | n | n
CN1C(=O)NC2(O)C(=O)c3ccccc3C12O (stereo unspecified) | x | n | x | x
O=S(=O)(c1cccc2nonc12)N1CCC(Cc2ccccc2)CC1 | x | n | n | n
O=S(=O)(c1cccc2nsnc12)N1CCC(Cc2ccccc2)CC1 | x | n | x | x
N#Cc1c(/N=C/c2ccc(Cl)c(Cl)c2)oc(-c2ccccc2)c1-c1ccccc1 | x | 73 | 12 | n
N#Cc1c(/N=C/c2ccccc2)oc(-c2ccccc2)c1-c1ccccc1 | x | n | x | x
N#CCCn1cc(CO)c(-c2ccccc2)n1 | n | n | x | x
COc1ccc(C(=O)NC(c2ccc(C)cc2)c2cc(Cl)c3cccnc3c2O)cc1 (stereo unspecified) | x | 80 | 61 | n
SMILES | HCMV NEC inh | GIV-Gai inh | GIV Gai FP conf | GIV Gai AS conf
COc1ccc(C(=O)NC(c2ccccc2Cl)c2cc(Cl)c3cccnc3c2O)cc1 (stereo unspecified) | x | n | x | x
Cc1cc(C)cc(NC(=O)N2CCC(CN3CCCCC3)CC2)c1 | n | n | x | x
Nc1ccc(N2CCOCC2)c2nonc12 | n | 63 | 46 | 2710
O=C(Nc1ccc(N2CCOCC2)c2nonc12)c1ccco1 | n | n | x | x
CCC(C)Sc1ncnc2sccc12 (stereo unspecified) | n | x | x | x
COc1cccc(C2=N/C(=C\c3ccccc3OC)C(=O)N2c2ccc(C)cc2Br)c1 | x | n | x | x
COc1cccc(C2=N/C(=C\c3ccccc3OC)C(=O)N2c2ccc(C)cc2C)c1 | x | 73 | n | n
COC(=O)CN1CC(=O)NC(=O)C1 | n | x | x | x
C=CCSc1ncc(Cl)c(C(=O)Nc2sc3c(c2C(=O)OC)CCC3)n1 | n | n | x | x
C=CCSc1ncc(Cl)c(C(=O)Nc2sc3c(c2C(=O)OC)CCCC3)n1 | n | 85 | n | n
Cc1cccc(Cn2c(C)c(CNCCc3ccc(S(N)(=O)=O)cc3)c(C(=O)O)c2C)c1 | n | n | x | x
CCOc1cc(/C=C/c2ccccc2OC)cc(=O)c2c(C)oc(C)c12 | x | n | x | x
COc1cccc(=O)c2c(C)oc(C)c12 | n | 25 | 37 | 7201
Cc1noc(C)c1CSc1nc(-c2ccccc2)cs1 | n | x | x | x
O=C(Nc1ccc2c(c1)nc1n2CCCCC1)c1ccccc1NS(=O)(=O)c1cccs1 | n | x | x | x
CC(C)CC(=O)NN | n | x | x | x
